## Ab-14 light chain CDR variants: yeast mating affinities

Reference: Li et al. 2023, doi:10.1038/s41467-023-39022-2. File: FLAb, binding data.

Antigen: PDVDLGDISGINAS, a 14-residue peptide of the SARS-CoV-2 spike HR2 region.

Parent scFv Ab-14: VH joined to VL by a 15-residue (Gly4Ser)3 linker. Changes lie in the light chain CDRs alone.
VH: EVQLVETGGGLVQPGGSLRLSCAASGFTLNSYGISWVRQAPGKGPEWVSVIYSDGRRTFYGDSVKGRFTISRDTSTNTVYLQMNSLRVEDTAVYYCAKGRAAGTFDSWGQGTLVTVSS
VL: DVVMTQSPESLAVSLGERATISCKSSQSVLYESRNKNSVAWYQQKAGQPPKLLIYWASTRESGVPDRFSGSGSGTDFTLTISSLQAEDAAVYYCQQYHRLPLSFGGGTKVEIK

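This is the validation round: designs drawn from the data on random variants, tested in the same kind of assay. Their group label is 14L_GP_Gibbs (GP: Gaussian process model; Gibbs: Gibbs sampling; a sequence that several methods proposed may carry one label only). The assay is AlphaSeq: two haploid yeast populations carry antibody and antigen on their surface. Binding brings cells together so that they mate, and sequencing counts the barcode pairs among the diploids. Read counts were normalised to the haploid input and turned into Kd by a linear fit to BCL2-family pairs of known affinity, for each replicate. Mating was done six times.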

Variants are written as CDR1, CDR2 and CDR3 of the light chain (limits as in the source). Parent: KSSQSVLYESRNKNSVA, WASTRES, QQYHRLPLS. The read-out is the apparent dissociation constant on a log10 scale (nM): the lower, the stronger. A pair that was not seen in that replicate is written "nd"; this usually means weak binding, but a binder can also be missed. Of ten entries with the parent sequence, four were seen in most replicates (averages 0.34 to 2.37), three in one and three in none, so single entries are noisy. Background: pairings of all light chain designs with three empty control strains gave a value in 4% of cases (median 2.64, 5th percentile 1.59). Values in that range, when seen in few replicates, are hard to tell from nonspecific mating. The control count says in how many pairings with the empty strains this scFv gave a signal. The authors averaged sequences with at least three values out of six and counted those with two or fewer as poor binders. Values of this round are not directly comparable with the first-round values of the same sequences.

For KVSQSEDYQSRNKWSVA / NASTRES / QQYHRLPLS, the assay gave 1.24, 0.93, 0.59, 0.69, 0.71, 0.88 (controls 1 of 18).
For KLVWSELYESRNKNSVA / GASQRES / QQYHRLPLS, the assay gave -0.15, -0.31, -0.31, -0.47, -0.51, -0.25 (controls 2 of 18).
For KLSQSWMQQWRNKNSVA / NASTRES / QQYHRLPLS, the assay gave 0.59, 0.32, -0.16, -0.01, 0.16, 0.32 (controls 0 of 18).
For KVSMLHDYESRNKNSVA / EASTREQ / QDYHRLPLS, the assay gave -0.13, -0.15, -0.11, -0.10, -0.20, 0.06 (controls 1 of 18).
For KVDQDDLYESRNKNSVA / QGSTRES / QQYHRLPLH, the assay gave 0.33, 0.19, 0.41, 0.36, 0.17, 0.31 (controls 1 of 18).
For KLEQSELYESRNANSVA / NASTRMS / QQYKRLPLS, the assay gave 0.05, 0.02, 0.06, -0.14, -0.20, 0.05 (controls 3 of 18).
For KLQQSVQYESRNQNAVA / EASQRES / QQYHRLPLS, the assay gave -0.07, -0.27, -0.37, -0.23, -0.27, -0.25 (controls 4 of 18).
For KLSMSVLYEDRHSNSVA / NASKRFM / QQYHRLPLS, the assay gave 0.61, 0.62, 0.72, 0.65, 0.71, 0.93 (controls 2 of 18).
For KVPQSNLYESRNANNVA / SASQRLS / QQYHRLPLS, the assay gave 1.07, 0.43, 0.53, 0.13, 0.14, 0.63 (controls 3 of 18).
For KQSQSVMQEERNKNSVA / AASDREV / QQYHRLPLS, the assay gave nd, nd, nd, nd, 1.83, 2.06 (controls 0 of 18).
For KVVQSHDYESRNKNSVA / HASTRCS / QQYHRLPLS, the assay gave 0.24, 0.11, 0.28, 0.23, 0.09, 0.28 (controls 1 of 18).
For KHSISVWGEDRNKNSVA / DASTRES / QQYHRLPLS, the assay gave 0.11, -0.15, -0.26, -0.21, -0.04, -0.07 (controls 1 of 18).
For KFPQEVWYQSRMKNSVA / DASTREQ / QQYHRLPLS, the assay gave -0.20, -0.22, -0.45, -0.48, -0.52, -0.36 (controls 0 of 18).
For KVQQSELGESRMFNSVA / NASKRES / QQYHRLPLS, the assay gave 0.31, 0.23, 0.11, -0.07, 0.27, 0.21 (controls 2 of 18).
For KMSQSNDYEERNDNAVA / NASQREM / QQYHRLPLS, the assay gave 0.18, 0.24, 0.00, -0.05, 0.18, 0.36 (controls 3 of 18).
For KLQPSWLYEERNDNSVA / QASQRES / QDYHRLPLS, the assay gave 0.13, 0.05, 0.00, 0.14, 0.15, 0.06 (controls 3 of 18).
For KVSNSVMLESRAWNAVA / EASTRES / QDYHRLPLS, the assay gave 0.63, 0.67, 0.46, 0.68, 0.44, 0.64 (controls 1 of 18).
For RLSQSVLQEERNDNSVA / NASTRCS / QQYHRLPLS, the assay gave 0.93, 0.72, 0.81, 0.65, 0.62, 0.89 (controls 3 of 18).
For KLSQSVWYESRLKNSVA / NASTRMY / QQYHRLPLA, the assay gave 0.81, 0.76, 0.65, 0.98, 0.73, 0.70 (controls 1 of 18).
For KLSWSVLGMSRAKNSVA / NASTRES / QQYHRLPLS, the assay gave 0.04, 0.16, 0.52, 0.50, 0.78, 0.32 (controls 0 of 18).
For KLSGSDLYQSRNSNAVA / EASQREQ / QQYHRLPLS, the assay gave 0.30, 0.14, 0.54, 0.12, -0.32, 0.44 (controls 0 of 18).
For KVSPSWQYESRNKQSVA / HASQREE / QQYHRLPLS, the assay gave 1.23, 0.67, 0.20, 0.49, 0.17, 1.09 (controls 1 of 18).
For KYQFSELELSRNKNSVA / WASTREL / QDYHRLPLS, the assay gave 0.86, 0.80, 0.88, 0.49, 0.82, 1.12 (controls 2 of 18).
For KVSPSWWYESRNKNNVA / HASTRES / QQYHRLPLH, the assay gave 0.56, 0.15, 0.51, 0.27, 0.45, 0.65 (controls 1 of 18).
For KISQSVEYESRDKNSVA / SANTRLS / QQYHRLPLS, the assay gave 0.48, 0.56, 0.60, 0.43, 0.05, 0.83 (controls 0 of 18).
For HLSGSVLMESRNKNSVA / SADTRLS / QQYHRLPLS, the assay gave 0.19, 0.09, 0.13, -0.04, 0.25, 0.39 (controls 1 of 18).
For KFSQSFLYWSRNSNAVA / EASTRES / QDYHRLPLS, the assay gave 1.26, 0.27, 0.71, 0.25, 0.66, 0.51 (controls 1 of 18).
For KLMQSAWLESRNFNNVA / QASQREL / QQYHRLPLS, the assay gave -0.08, -0.03, 0.09, -0.29, -0.12, 0.03 (controls 1 of 18).
For KLSQSDWYQSRMDNSVA / DASTRES / QQYHRLPLS, the assay gave 0.60, 0.64, 0.78, 0.73, 0.29, 0.79 (controls 0 of 18).
For KVSVSNPYETRNKNSVA / EASTREE / QQYHRLPLS, the assay gave 0.22, 0.01, 0.12, 0.08, 0.26, 0.19 (controls 0 of 18).
For KLMQGDEYESRNKNSVA / NASKRLE / QQYHRLPLS, the assay gave 0.01, 0.01, -0.03, -0.08, -0.02, 0.17 (controls 1 of 18).
For KLVMSWQYESRNKNSVA / HASQRCS / QQYHRLPLS, the assay gave 2.05, 0.96, 0.25, 0.25, nd, 0.77 (controls 0 of 18).
For KLSQSVPYEERNKAQVA / DASTRMS / QQYHRLPLS, the assay gave 1.04, 0.50, 0.47, 0.37, 0.68, 0.46 (controls 3 of 18).
For KFEGSEGYGSRNKNSVA / EASHRMS / QQYHRLPLS, the assay gave 0.22, 0.20, 0.13, 0.00, 0.19, 0.21 (controls 4 of 18).
For AVSQSHLYESRNKNSVA / EASTREQ / QQYHRLPLS, the assay gave 0.16, -0.14, 0.10, -0.26, -0.29, 0.07 (controls 0 of 18).
For KLSGSMLYEQRMKNSVA / QASVRMS / QQYHRLPLS, the assay gave 0.40, -0.20, 0.51, -0.10, 0.14, 0.48 (controls 0 of 18).
For KQEISVLQESRNQNSVA / SASTREV / QQYHRLPLS, the assay gave 0.41, 0.28, 0.12, 0.09, 0.31, 0.41 (controls 0 of 18).
For FLQQSWEYESRNDNSVA / NASQRCW / QQYHRLPLS, the assay gave 0.37, 0.47, 0.30, 0.31, 0.22, 0.54 (controls 1 of 18).

Top 6 of the variants detected in all replicates, tightest first:

KFPQEVWYQSRMKNSVA / DASTREQ / QQYHRLPLS: -0.20, -0.22, -0.45, -0.48, -0.52, -0.36 (controls 0 of 18).
KLVWSELYESRNKNSVA / GASQRES / QQYHRLPLS: -0.15, -0.31, -0.31, -0.47, -0.51, -0.25 (controls 2 of 18).
KLQQSVQYESRNQNAVA / EASQRES / QQYHRLPLS: -0.07, -0.27, -0.37, -0.23, -0.27, -0.25 (controls 4 of 18).
KVSMLHDYESRNKNSVA / EASTREQ / QDYHRLPLS: -0.13, -0.15, -0.11, -0.10, -0.20, 0.06 (controls 1 of 18).
KHSISVWGEDRNKNSVA / DASTRES / QQYHRLPLS: 0.11, -0.15, -0.26, -0.21, -0.04, -0.07 (controls 1 of 18).
KLMQSAWLESRNFNNVA / QASQREL / QQYHRLPLS: -0.08, -0.03, 0.09, -0.29, -0.12, 0.03 (controls 1 of 18).